Activity calls are given as the source filed them. No cut-off for these calls is given here.

Holding throughout (type): functional, cell-based
Assay [1] deals with C3H 10T1/2. Briefly: Inhibition of AhR mRNA expression in purmorphamine treated mouse C3H 10T1/2 cells at 1 uM incubated for 48 to 96 hrs by RT-qPCR analysis. The note with it: time 48-96 hrs. (In general: Quantitative PCR measures a nucleic acid by following its amplification.)
Assay [2] has as its system C3H 10T1/2. Briefly: Inhibition of Hedgehog-signalling dependent purmorphamine induced osteoblast differentiation in mouse C3H 10T1/2 cells assessed as reduction in ALP expression at 0.01 to 100 uM incubated for 96 hrs by CDP-Star luminogenic substrate based assay. The note with it: dose 0.01-100 µM.
For assay [3], the system named is C3H 10T1/2. Briefly: Downregulation of purmorphamine-induced Ptch2 mRNA expression in mouse C3H 10T1/2 cells at 1 uM measured after 48 hrs by RT-qPCR analysis.

As to `CS(=O)(=O)c1ccc(C(=O)Nc2ccc(Cl)c(-c3ccccn3)c2)c(Cl)c1`, the inhibition entry in the assay on C3H 10T1/2 [1] was “Active”.

Turning to `CC(C)c1c(O)cc(/C=C/c2ccccc2)cc1O`, the inhibition result with C3H 10T1/2 [2] was “Active”.

Regarding `Cc1ccccc1/N=N/c1ccc(NC(=O)c2ccnn2C)c(C)c1`, the inhibition entry in the assay with C3H 10T1/2 [2] is “Active”.

Take `Cc1csc(NC(=O)C(C(=O)OC(C)C)=C2SCS2)n1`: in the assay with C3H 10T1/2 [2], the inhibition result was “Active”.

Take `Clc1cc2c(cc1Cl)Oc1cc(Cl)c(Cl)cc1O2`: the inhibition entry with C3H 10T1/2 [2] was “Active”.

With `c1ccc2c(c1)cc1ccc3cccc4ccc2c1c34`, the inhibition entry with C3H 10T1/2 [2] was “Active”.

With `O=Cc1c2[nH]c3ccccc3c2cc2[nH]c3ccccc3c12`, in the assay on C3H 10T1/2 [2], the inhibition result is “Active”. Besides, the outcome in the assay with C3H 10T1/2 [3] was Active.

These data come from ChEMBL document CHEMBL5150067 (J Med Chem, 2022).
